The numbers were not newly measured in patent US20250108054A1, “METHODS FOR TREATING PERSISTENT OR CHRONIC IMMUNE THROMBOCYTOPENIA IN CHILDREN, ADOLESCENTS AND ADULTS BY ADMINISTERING (R)-2-[3-[4-AMINO-3-(2-FLUORO-4-PHENOXY-PHENYL)PYRAZOLO[3,4-D]PYRIMIDIN-1-YL]PIPERIDINE-1-CARBONYL]-4-METHYL-4-[4-(OXETAN-3-YL)PIPERAZIN-1-YL]PENT-2-ENENITRILE” (Principia Biopharma Inc., priority 2023, published 2025), which cites them from elsewhere.

This series concerns healthy volunteers. Conditions: healthy volunteers (N=51), even at supratherapeutic doses; cited from earlier work.

Each structure is given as a SMILES string.

On to `CC(C)(C=C(C#N)C(=O)N1CCC[C@@H](n2nc(-c3ccc(Oc4ccccc4)cc3F)c3c(N)ncnc32)C1)N1CCN(C2COC2)CC1` (mixture of isomers) [rilzabrutinib, (R)-2-[3-[4-amino-3-(2-fluoro-4-phenoxy-phenyl)pyrazolo[3,4-d]pyrimidin-1-yl]piperidine-1-carbonyl]-4-methyl-4-[4-(oxetan-3-yl)piperazin-1-yl]pent-2-enenitrile], for which the “effects on cardiac repolarization (ECG parameters including corrected QT interval)” value is recorded as “does not exert clinically relevant effects”.
